{"sequences": {"note": "Protein sequences, listed by entry. Tags and fused reporters are not part of them.", "UniProt O43603, whole entry": "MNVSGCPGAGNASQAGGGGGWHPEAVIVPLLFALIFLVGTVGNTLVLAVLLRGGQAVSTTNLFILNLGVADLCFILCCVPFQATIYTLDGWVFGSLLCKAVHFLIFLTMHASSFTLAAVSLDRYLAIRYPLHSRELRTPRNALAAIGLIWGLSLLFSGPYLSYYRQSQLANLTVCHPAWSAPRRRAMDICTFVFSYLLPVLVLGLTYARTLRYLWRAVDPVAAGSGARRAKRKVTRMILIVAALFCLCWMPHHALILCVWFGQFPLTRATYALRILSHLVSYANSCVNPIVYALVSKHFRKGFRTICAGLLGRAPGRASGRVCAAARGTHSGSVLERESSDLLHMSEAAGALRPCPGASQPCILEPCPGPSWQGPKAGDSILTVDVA"}, "source": "PubChem BioAssay AID803", "about": "(The Scripps Research Institute Molecular Screening Center, 2007)", "note": "The list shows a part of the results, in another mix than the full data. Activity calls are given as the source filed them. Cut-off read from the data, not from the text of the source: active = activation above about 5% (passing the limit was not always enough); inactive = the rest."}
{"target": "Galanin receptor type 2 (Homo sapiens) (UniProt O43603)", "test": "human galanin receptor 2 activators – cell-based, primary screen (AID 803);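 note: 0% = vehicle buffer wells and 100% = reference agonist at full effect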", "details": "GALR2-expressing cells, agonist activation read-out; at 5.6 µM; hits give high values"}
{"smiles": "CN1CCN(CCOC(=O)C(O)(c2ccccc2)c2ccccc2)CC1", "activation": "inactive: -0.58%"}
{"smiles": "O=C(NCC1(N2CCOCC2)CCCCC1)c1cc(=O)[nH]c2ccccc12", "activation": "inactive: -1.48%"}
{"smiles": "N#CC1(Nc2ccccc2)CCN(CCc2ccccc2)CC1", "activation": "inactive: -1.49%"}
{"smiles": "CN1CCC(Nc2cccc(F)c2)CC1", "activation": "inactive: -1.07%"}
{"smiles": "O=C(NCC1(N2CCOCC2)CCCCC1)c1cc2ccccc2o1", "activation": "inactive: -0.23%"}
{"smiles": "O=C(OC1CN2CCC1CC2)C1c2ccccc2Oc2ccccc21", "note": "(stereo not drawn)", "activation": "inactive: -0.45%"}
{"smiles": "COc1ccc(NC2CCN(CCc3ccccc3)CC2)c(OC)c1", "activation": "inactive: -2.3%"}
{"smiles": "CCN1CCC(Nc2cccc(F)c2)CC1", "activation": "inactive: -1.88%"}
{"smiles": "CCC(CO)(C(=O)OC1CN2CCC1CC2)c1ccccc1", "note": "(stereo not drawn)", "activation": "inactive: 0.19%"}
{"smiles": "CCOc1ncccc1C(=O)NCC1(N2CCOCC2)CCCCC1", "activation": "inactive: 0.95%"}
{"smiles": "N/C(=N\\O)c1c(N)no[n+]1[O-]", "activation": "inactive: -1.05%"}
{"smiles": "O=C(OC1CN2CCC1CC2)C1c2ccccc2C=Cc2ccccc21", "note": "(stereo not drawn)", "activation": "inactive: -0.94%"}
{"smiles": "c1ccc(CN2CCC(Nc3ccccc3)CC2)cc1", "activation": "inactive: -3.05%"}
